# Apparent affinities of Ab-14 variants for a coronavirus HR2 peptide

Antigen: PDVDLGDISGINAS, a 14-residue peptide of the SARS-CoV-2 spike HR2 region.

The variants keep the light chain, the linker and the frameworks of Ab-14 (scFv order VH, a 15-residue (Gly4Ser)3 linker, VL).
VH: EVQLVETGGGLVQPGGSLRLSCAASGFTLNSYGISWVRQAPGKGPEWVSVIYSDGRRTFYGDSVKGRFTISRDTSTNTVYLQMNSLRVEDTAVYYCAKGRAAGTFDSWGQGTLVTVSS
VL: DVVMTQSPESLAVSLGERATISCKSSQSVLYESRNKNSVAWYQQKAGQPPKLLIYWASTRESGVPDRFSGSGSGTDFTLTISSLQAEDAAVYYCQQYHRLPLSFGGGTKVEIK

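Phage display of a naive human antibody library on the peptide gave the parent. Library AAYL49 holds single substitutions and randomly drawn double and triple substitutions in the CDRs. AlphaSeq pools MATa yeast showing the antibodies with MATalpha yeast showing the peptide. Binding brings cells together so that they mate, and sequencing counts the barcode pairs among the diploids. Each replicate has its own calibration line, from reference interactions of the BCL2 family. There are three technical replicates.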

The parent's heavy chain CDRs are GFTLNSYGIS, VIYSDGRRTFYGDSVK, GRAAGTFDS; each variant's own CDRs replace them letter for letter. Every variant below is changed at D62 of the VH (sequential numbering). The Kd shown is the geometric mean over detected replicates; a lower Kd is a better binder. "nd" marks a missing value. The strain was present, yet no cells mated with the target were sequenced in any replicate, which points to weak or no binding. For reference, the parent read 4.4 nM as the reference entry and 13 µM (one replicate of three) as a member of this library. As a blank, each scFv also met three strains without target: over library AAYL49, 15% of these pairings were detected, typically at 11 µM and seldom below 680 nM.

GFTLNSYGIS / VIYSDGRRTFYGWYVK / GRAAGTFDS: nd (0 of 3 replicates).
GSTLNSYGIS / VIYSDGRRTFYGCSVK / GRAAGTIDS: 2.7 µM (1 of 3 replicates).
GFTLNHYGIS / VIYSDGRRTFYGLSVP / GRAAGTFDS: 4.4 µM (1 of 3 replicates).
GFTLNSYGIS / VIYSDGRRTFYGTSVK / GVAAGTFRS: 560 nM (3 of 3 replicates).
GFTLNSYGIS / VSYSDPRRTFYGFSVK / GRAAGTFDS: nd (0 of 3 replicates).
GFTLNSYGIS / DIYSDGFRTFYGLSVK / GRAAGTFDS: nd (0 of 3 replicates).
GFTLNSYGIY / VIGSDGRRTFYGASVK / GRAAGTFDS: nd (0 of 3 replicates).
GFTLNSYGIS / VIYSDGRRTFYGIPVK / GRAAGTFDW: nd (0 of 3 replicates).
GFTLNSYGIS / LIYSDGARTFYGWSVK / GRAAGTFDS: 4.6 µM (1 of 3 replicates).
GFTLNSYGIS / VIYSDGRRTFYGGSVC / GRAAGTFDS: 730 nM (3 of 3 replicates).
GFTLNSYGHS / RIYSDGRRTFYGASVK / GRAAGTFDS: nd (0 of 3 replicates).
GFTLNSYGIS / VIYSDGRRVFYGFSVK / GQAAGTFDS: nd (0 of 3 replicates).
GFTLNSYGIS / VIYSDGRTTFYGNSVK / LRAAGTFDS: nd (0 of 3 replicates).
GFTLNSYGIS / VIYSDGRRTFFGFSVK / GRAAGWFDS: 14 µM (1 of 3 replicates).
GFTLNSYGIS / VIYSDGRRTFYGESVK / GRAAGTFDS: 5.7 nM (3 of 3 replicates).
GFTLNYYGIS / VIYNDGRRTFYGFSVK / GRAAGTFDS: nd (0 of 3 replicates).
GFTLNSYGIS / VIYSDRRRTFSGCSVK / GRAAGTFDS: nd (0 of 3 replicates).
GFTLNSYGIS / VIYSDGRRTFYGESVK / GRTAGTFQS: 26 nM (3 of 3 replicates).
GFTLNSYGIS / VIYSDGRRTFYGLSVK / ARAAGTFDS: 750 nM (3 of 3 replicates).
GFTLNSYGIS / VSYSDGRRTFYGYSVK / GRAAQTFDS: 2.4 µM (1 of 3 replicates).
GFTLNSYVVS / VIYSDGRRTFYGWSVK / GRAAGTFDS: nd (0 of 3 replicates).
GFTLNSYGIS / VIYSDGRRTFYGFSVK / GRAAGTFDS: 920 nM (3 of 3 replicates).
GFTLNSYGIS / VTYSDGRRTFYQMSVK / GRAAGTFDS: nd (0 of 3 replicates).
GFTLNSYGIA / VIYSDGRRTFYGESVK / GRAEGTFDS: nd (0 of 3 replicates).
GFTLNSRGIS / VIYSDGNRTFYGPSVK / GRAAGTFDS: nd (0 of 3 replicates).
GFTLPSYGIS / VIYSDGRVTFYGKSVK / GRAAGTFDS: nd (0 of 3 replicates).
GFTLNSYGIS / VIYSWERRTFYGVSVK / GRAAGTFDS: nd (0 of 3 replicates).
GFTLNSYAIS / VIYSDGRRTFYGTSRK / GRAAGTFDS: nd (0 of 3 replicates).
GFTLNSYGIS / VIYSDGRRTFYGKRVK / PRAAGTFDS: nd (0 of 3 replicates).
GFDLNSYGIS / VIYSDGRRTFYGTSVK / GRAAATFDS: 6.5 nM (3 of 3 replicates).
GFTLNSYGIS / VIYSDGRRTFYGQSVL / GRAAGTFDS: 210 nM (3 of 3 replicates).
GFTLNSYGIW / VIYSDGRRTFYGMAVK / GRAAGTFDS: nd (0 of 3 replicates).

Extract of 4 entries:

{"CDR-H1": "GFTLNSYGIS", "CDR-H2": "VIYSDRRRTFSGCSVK", "CDR-H3": "GRAAGTFDS", "apparent Kd": "nd", "detected": "0 of 3"}
{"CDR-H1": "GFTLNSYGIS", "CDR-H2": "VIYSDGRRTFYGGSVC", "CDR-H3": "GRAAGTFDS", "apparent Kd": "730 nM", "detected": "3 of 3"}
{"CDR-H1": "GFTLPSYGIS", "CDR-H2": "VIYSDGRVTFYGKSVK", "CDR-H3": "GRAAGTFDS", "apparent Kd": "nd", "detected": "0 of 3"}
{"CDR-H1": "GFDLNSYGIS", "CDR-H2": "VIYSDGRRTFYGTSVK", "CDR-H3": "GRAAATFDS", "apparent Kd": "6.5 nM", "detected": "3 of 3"}

Source: Engelhart et al. 2022 (doi:10.1038/s41597-022-01779-4), MIT Lincoln Laboratory and A-Alpha Bio; data file from the FLAb repository.